Values quoted from earlier work, collected in PMC8802617 (Bioorganic & medicinal chemistry, 2018).

Chains of the proteins cited; added tags and fusions are not shown.
UniProt P35372, whole entry: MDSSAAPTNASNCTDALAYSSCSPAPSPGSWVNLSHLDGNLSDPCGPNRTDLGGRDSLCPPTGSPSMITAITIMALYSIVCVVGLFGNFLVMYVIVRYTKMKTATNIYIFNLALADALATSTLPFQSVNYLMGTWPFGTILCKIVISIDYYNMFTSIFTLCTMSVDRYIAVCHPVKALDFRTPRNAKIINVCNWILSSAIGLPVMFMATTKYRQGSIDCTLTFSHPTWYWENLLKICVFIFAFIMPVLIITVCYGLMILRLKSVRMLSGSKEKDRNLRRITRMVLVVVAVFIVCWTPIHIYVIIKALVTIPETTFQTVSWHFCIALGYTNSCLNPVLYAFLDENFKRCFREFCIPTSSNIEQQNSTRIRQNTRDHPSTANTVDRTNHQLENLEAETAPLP

Target: MOR (Homo sapiens, UniProt P35372)
Details: read-out: MOR Ki; literature value ref 6; cited from earlier work

## Biphalin
  Ki: 12 ± 2 nM
